# Source: published antibiotic growth screens (doi:10.1038/s41589-023-01349-8)
# This is one part of the list.
# Test system: A. baumannii ATCC 17978
# Experiment: relative growth (fraction of control); higher = less inhibition
# Settings: 50 µM
row,SMILES,relative growth
1,COc1ccc(C(=O)Nc2ccc(CN3C(=O)[C@@]4(O[C@@H](CC(=O)N5CCC[C@H]5CO)[C@H]([Si](C)(C)c5ccc(OC)cc5)[C@H]4C)c4ccccc43)cc2)cc1,0.973
2,CCc1ccc(CCOc2ccc(CC3SC(=O)NC3=O)cc2)nc1.Cl (centres undefined),0.968
3,Cn1c(=O)c2c(ncn2C)n(C)c1=O,0.94
4,C[C@@H]1CC[C@]2(C(=O)O[C@@H]3O[C@H](CO)[C@@H](O)[C@H](O)[C@H]3O)CC[C@]3(C)C(=CC[C@H]4[C@@]5(C)C[C@@H](O)[C@H](O)[C@@](C)(CO)[C@@H]5CC[C@]43C)[C@@H]2[C@]1(C)O,0.952
5,C[C@@H]1CN([C@H](C)CO)S(=O)(=O)c2ccc(-c3cccc(F)c3)cc2O[C@@H]1CN(C)S(C)(=O)=O,0.989
6,NC(=NC(=O)N1CCOCC1)c1ccccc1,0.758
7,O=C1CCc2c(ccc3ccccc23)O1,0.943
8,C[C@H](CO)N1C[C@H](C)[C@H](CN(C)C(=O)C2CCOCC2)Oc2cc(-c3ccc(F)cc3)ccc2S1(=O)=O,1.06
9,COc1ccc(NC(=O)N2C[C@@H](O)COC[C@@H]3O[C@@H](CC(=O)NC4Cc5ccccc5C4)CC[C@H]32)cc1,1.12
10,S=P(N1CC1)(N1CC1)N1CC1,1.36
11,N[C@H](Cc1cc(I)c(Oc2ccc(O)c(I)c2)c(I)c1)C(=O)O,1.37
12,Cc1ccc(S(=O)(=O)N[C@@H](Cc2ccccc2)C(=O)NCCn2cc(C(=O)NO)nn2)cc1,0.936
13,CCN1CCCC1CNC(=O)c1cc(S(=O)(=O)CC)c(N)cc1OC (centres undefined),1.2
14,O=S1(=O)CC[C@H](S(=O)(=O)N2CCOCC2)C1,1.06
15,CC(=O)O.N=C(N)N/N=C\c1c(Cl)cccc1Cl,0.903
16,CN[C@H](CC(C)C)C(=O)N[C@@H]1C(=O)N[C@@H](CC(N)=O)C(=O)N[C@H]2C(=O)N[C@@H]3C(=O)C[C@H](C(=O)N[C@@H](C(=O)O)c4cc(O)cc(O)c4-c4cc3ccc4O)[C@H](O)c3ccc(c(Cl)c3)Oc3cc2cc(c3O[C@@H]2O[C@@H](CO)[C@@H](O)[C@H](O)[C@H]2O[C@H]2C[C@](C)(N)[C@H](O)[C@H](C)O2)Oc2ccc(cc2Cl)[C@H]1O,0.96
17,O=C(CN1CCOCC1)N[C@H]1CC[C@@H](CCNC(=O)C2CCCCC2)O[C@@H]1CO,0.946
18,Cc1cc(O)cc(=O)o1,1.14
19,COc1ccc2[nH]c(S(=O)Cc3ncc(C)c(OC)c3C)nc2n1 (centres undefined),1.25
20,O=C(NCCN1CCOCC1)C(=O)NC[C@H]1OCCN1S(=O)(=O)c1ccc(F)cc1,1.19
21,Cc1onc(-c2c(Cl)cccc2Cl)c1C(=O)N[C@@H]1C(=O)N2[C@@H]1SC(C)(C)[C@@H]2C(=O)[O-].[Na+],1.07
22,C/C=C/c1ccc2c(c1)O[C@@H](CN(C)S(=O)(=O)c1ccc(C)cc1)[C@@H](C)CN([C@H](C)CO)S2(=O)=O,1.15

row,SMILES,relative growth
1,C=CC[C@@H](CC(=O)NCCO)C(=O)N[C@H](COC(=O)[C@H](CC=C)CC(=O)OC(C)(C)C)Cc1c[nH]c2ccccc12,0.813
2,Cc1cc(F)ccc1S(=O)(=O)N1CCCO[C@@H]1CNC(=O)C(=O)NCc1ccncc1,1.16
3,COc1ccccc1CNC(=O)C[C@H]1CC[C@H]2[C@@H](COC[C@@H](O)CN2C(=O)Nc2ccc(Cl)cc2)O1,1.02
4,NC[C@H](c1ccco1)N1CCCCCC1,0.882
5,c1cc2c(cc1-c1nn[nH]n1)OCO2,0.96
6,COc1ccc([Si](C)(C)[C@@H]2[C@@H](CC(=O)N3Cc4ccccc4C[C@H]3CO)O[C@]3(C(=O)N(Cc4cccc(N5C(=O)c6cccc7cccc5c67)c4)c4ccccc43)[C@H]2C)cc1,1.01
7,C[C@@H]1CN([C@@H](C)CO)S(=O)(=O)c2ccc(C#Cc3ccc(F)cc3)cc2O[C@H]1CN(C)S(C)(=O)=O,1.03
8,C[C@H]1[C@H]([Si](C)(C)F)[C@@H](CCO)O[C@]12C(=O)N(Cc1cccc(N(C=O)c3ccccc3)c1)c1ccccc12,0.898
9,O=C(C[C@H]1CC[C@H]2[C@@H](COC[C@@H](O)CN2S(=O)(=O)c2ccc(Cl)cc2)O1)N[C@@H]1CCN(Cc2ccccc2)C1,0.928
10,COc1ccc(-n2nc(C(N)=O)c3c2C(=O)N(c2ccc(N4CCCCC4=O)cc2)CC3)cc1,1.04
11,CC(C)NC(=O)N[C@@H]1C=C[C@@H](CC(=O)NCCN2CCCC2)O[C@H]1CO,1.01
12,COc1ccc(C(C)=O)c(O)c1,1.06
13,COCC#Cc1ccc2c(c1)O[C@H](CN(C)S(=O)(=O)c1cccc(OC)c1)[C@@H](C)CN([C@@H](C)CO)S2(=O)=O,1.06
14,O=C(C[C@@H]1CC[C@H](NS(=O)(=O)c2ccccc2F)[C@@H](CO)O1)NCCCN1CCOCC1,1.04
15,COc1c(O)cc2c(c1O)[C@@H]1O[C@H](CO)[C@@H](O)[C@H](O)[C@H]1OC2=O,1.03
16,CC(=O)Oc1cccc(C(=O)O)c1OC(C)=O,1.07
17,Nc1ncn(C(=O)c2ccccc2)n1,1.08
18,CC(=O)CCc1ccc(OC(C)=O)cc1,1.01
19,CN(C)CC(=O)N[C@H]1CC[C@@H](CC(=O)NCCN2CCCCC2)O[C@@H]1CO,1.1
20,CC(C)[C@H]1CC[C@H](C(=O)N[C@H](Cc2ccccc2)C(=O)O)CC1,1.29
21,CC(=O)N1c2ccccc2C2=NNC(=S)N[C@]21O,1
22,CCC(C)n1ncn(-c2ccc(N3CCN(c4ccc(OC[C@H]5CO[C@](Cn6cncn6)(c6ccc(Cl)cc6Cl)O5)cc4)CC3)cc2)c1=O.Cl.Cl (some centres undefined),1.39
